Results reported in patent publication US5739278A, “Compositions for protein tyrosine phosphatases” (University of Washington, priority 1995, dated 1998).

Molecular target: T1, PTP1B (Homo sapiens, UniProt P18031)
T1 construct: The 37 kDa form of PTP1B; from tissue; host or cells: placenta
T1 sequence (P18031 1-321 limits assumed): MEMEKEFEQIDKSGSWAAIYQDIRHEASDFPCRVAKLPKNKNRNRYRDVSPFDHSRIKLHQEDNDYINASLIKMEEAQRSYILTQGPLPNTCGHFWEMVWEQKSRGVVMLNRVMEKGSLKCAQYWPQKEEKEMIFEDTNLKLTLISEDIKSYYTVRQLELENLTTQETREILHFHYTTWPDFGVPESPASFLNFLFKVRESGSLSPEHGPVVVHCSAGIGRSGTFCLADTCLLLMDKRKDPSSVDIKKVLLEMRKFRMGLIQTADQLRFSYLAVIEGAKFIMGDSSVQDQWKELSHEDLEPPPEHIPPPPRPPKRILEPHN
Assay: Phosphatase assay with ENDY(P)INASL as substrate
Format: biochemical
Protocol: The tyrosine phosphatases TC.PTP, TCΔC11.PTP, and RPTPα were purified from infected Sf9 cells as described recently (Zander et al., Biochemistry 30: 6964-6970, 1991; Daum et al., J. Biol. Chem. 266: 12211-12215, 1991). The 37 kDa form of PTP1B and CD45 were purified from placenta and spleen, respectively (according to Tonks et al., J. Biol. Chem. 263: 6722-6730, 1988; Tonks et al., Biochemistry 27: 8695-8701, 1988).
Phosphatase assays with ENDY(P)INASL were performed in buffer M6. Aliquots of 30 μl or 60 μl containing the phosphopeptide, the phosphatase (-beads) and effectors were incubated for 10 minutes at 30° C. The reaction was stopped by adding 200 μl of a suspension of 10% activated, acid-washed Norit A charcoal (v/v) in 0.9N HCl, 0.1M pyrophosphate and 2 mM NaH2 PO4 (according to Streuli et al., Proc. Natl. Acad. Sci. USA 86: 8698-8702, 1989). The mixture was cleared by 10-minute centrifugation and the radioactivity of 150 μl of the supernate was determined. Assays with MBP and RCML were performed as described in Tonks et al., J. Biol. Chem. 263: 6722-6730, 1988. Protein concentration was determined with BSA as standard (Bradford, Anal. Biochem. 72: 248-254, 1976).

## [O]=[V]([O-])([O-])[O-] [vanadate]
Effector 1.0 μM
  Phosphatase activity in percent of the value obtained in the absence of effectors: 56%
Effector 10 μM
  Phosphatase activity in percent of the value obtained in the absence of effectors: 5%
Effector 100 μM
  Phosphatase activity in percent of the value obtained in the absence of effectors: 1%
